Assays:
[1] = tested on: IL-15 induced P-STAT5 in human PBMC; assay: PBMC IL-15 Induced P-STAT5; conditions: read-out: PBMC IL15_pSTAT5_IC50, IL-15 final 41 ng/mL
Description: PBMC IL-15 Induced P-STAT5
Test compounds were serially diluted in DMSO, with further dilution of the compounds in RPMI 1640 medium (Invitrogen #72400) supplemented with 10 mM HEPES, pH 7.4, 1 mM sodium pyruvate, and Penicillin/Streptomycin (by adding 5 μL compound/DMSO in 120 μL Dulbecco's Phosphate-Buffered Saline (D-PBS, 1×), [DMSO]=4%, and mixing the solution by repeated pipetting, 6×). IL-15 was diluted to the concentration at 820 ng/mL in RPMI 1640 medium.
Frozen human PBMC (200-250 million cells/vial) was thawed at 37° C. The cells were transferred to 10 mL warm medium in a 50-mL conical tube, and centrifuged at 1,200 RPM at room temperature for 5 min. The supernatant was aspirated. Cells were suspended in 3 mL warm human plasma and incubated at 37° C. in a tissue culture incubator for 1.5 to 2 h. After adding 47 ml D-PBS (37° C.) to PBMC/FBS suspension, centrifuging at 1,200 RPM at room temperature for 5 min, and aspirating the supernatant, the cells were resuspended in 20 mL warm RPMI medium. Ninety μL of cell suspension were pipetted per well in a 96-well, deep-well, V-bottom plate, and the plate was incubated at 37° C. for 30 min. […] Samples were analyzed using a BD Calibur™ or BD FACSCanto™ flow cytometer equipped with the BD High Throughput Sampler.

Protein sequences, listed by entry. Tags and fused reporters are not part of them.
UniProt P52333, whole entry: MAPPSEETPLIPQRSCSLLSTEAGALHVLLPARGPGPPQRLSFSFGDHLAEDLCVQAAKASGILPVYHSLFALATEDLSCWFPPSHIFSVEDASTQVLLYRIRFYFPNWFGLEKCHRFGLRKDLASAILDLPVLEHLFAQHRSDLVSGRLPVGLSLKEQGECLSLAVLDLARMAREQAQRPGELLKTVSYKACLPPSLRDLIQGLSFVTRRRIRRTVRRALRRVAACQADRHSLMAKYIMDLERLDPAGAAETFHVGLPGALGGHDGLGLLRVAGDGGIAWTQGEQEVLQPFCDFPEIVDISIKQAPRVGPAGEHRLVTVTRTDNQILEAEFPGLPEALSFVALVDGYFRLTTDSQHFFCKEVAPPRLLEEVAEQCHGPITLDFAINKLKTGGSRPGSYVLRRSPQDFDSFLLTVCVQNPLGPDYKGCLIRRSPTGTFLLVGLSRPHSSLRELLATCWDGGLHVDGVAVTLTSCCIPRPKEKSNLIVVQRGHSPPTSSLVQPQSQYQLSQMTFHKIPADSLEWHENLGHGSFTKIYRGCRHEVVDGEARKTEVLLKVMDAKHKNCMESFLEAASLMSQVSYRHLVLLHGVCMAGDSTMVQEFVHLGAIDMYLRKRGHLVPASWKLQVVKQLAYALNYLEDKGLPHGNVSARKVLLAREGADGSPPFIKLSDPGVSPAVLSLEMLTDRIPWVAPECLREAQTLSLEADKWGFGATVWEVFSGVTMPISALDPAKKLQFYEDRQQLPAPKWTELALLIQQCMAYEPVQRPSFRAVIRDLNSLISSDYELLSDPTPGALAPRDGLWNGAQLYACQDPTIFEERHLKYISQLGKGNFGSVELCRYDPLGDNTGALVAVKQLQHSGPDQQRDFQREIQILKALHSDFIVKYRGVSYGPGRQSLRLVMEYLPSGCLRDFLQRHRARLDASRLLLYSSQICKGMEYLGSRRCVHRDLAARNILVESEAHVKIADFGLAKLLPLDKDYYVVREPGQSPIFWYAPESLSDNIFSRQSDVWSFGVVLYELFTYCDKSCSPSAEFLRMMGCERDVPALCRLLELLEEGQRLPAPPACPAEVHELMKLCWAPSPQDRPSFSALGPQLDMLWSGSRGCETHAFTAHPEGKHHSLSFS

JAK3 enzyme [2] = target: T1, JAK3 enzyme (Homo sapiens, UniProt P52333); assay: JAK Caliper Enzyme Assay at 1 mM ATP; conditions: read-out: JAK3 1 mM ATP IC50
Description: (§1) JAK Caliper Enzyme Assay at 4 μM or 1 mM ATP
(§2) Test article was solubilized in dimethyl sulfoxide (DMSO) to a stock concentration of 30 mM. An 11-point half log dilution series was created in DMSO with a top concentration of 600 μM. The test compound plate also contained positive control wells containing a known inhibitor to define 100% inhibition and negative control wells containing DMSO to define no inhibition. The compound plates were diluted 1 to 60 resulting in a top final assay compound concentration of 10 μM and a 2% DMSO concentration.
(§3) Test article and assay controls were added to a 384-well plate. Reaction mixtures contained 20 mM HEPES, pH 7.4, 10 mM magnesium chloride, 0.01% bovine serum albumin (BSA), 0.0005% Tween 20, 4 μM or 1 mM ATP and 1 μM peptide substrate. The JAK3 assays contained 1 μM of the JAKtide peptide (FITC-KGGEEEEYFELVKK). The assays were initiated by the addition 1 nM JAK3 enzyme and were incubated at room temperature 75 minutes for JAK3. Enzyme concentrations and incubation times were optimized for each new enzyme preps and were modified slightly over time to ensure 20%-30% phosphorylation. The assays were stopped with a final concentration of 10 mM EDTA, 0.1% Coating Reagent and 100 mM HEPES, pH=7.4. […]

JAK3 enzyme [3] = target: T1, JAK3 enzyme; assay: JAK Caliper Enzyme Assay at 4 μM ATP; conditions: read-out: JAK3 4 μM ATP IC50
Description: as §1, §2, §3

## C#CCOCCc1c[nH]c2ncnc(N[C@@H]3CC[C@H](C)N(C(=O)C=C)C3)c12 [Example 131, 1-[(2S,5R)-2-Methyl-5-({5-[2-(prop-2-yn-1-yloxy)ethyl]-7H-pyrrolo[2,3-d]pyrimidin-4-yl}amino)piperidin-1-yl]prop-2-en-1-one]
[1]
  IC50: 0.0862 µM
JAK3 enzyme [2]
  IC50: 0.024 µM
JAK3 enzyme [3]
  IC50: 0.000534 µM

— patent US10703756B2, “Pyrrolo[2,3-D]pyrimidinyl, pyrrolo[2,3-B]pyrazinyl, pyrrolo[2,3-B]pyridinyl acrylamides and epoxides thereof” (Pfizer Inc., priority 2015, dated 2020)
